Measurements reported in US10053462B2, “P2X7 modulators” (Jansssen Pharmaceutica NV, priority 2013, dated 2018).
Read-outs that look alike come from different tables or passages of the source.

Sequences of proteins named here, by UniProt entry; tags and fusion partners are left off. A change or cut given only in a name is not applied to a line headed by its entry.
UniProt Q99572: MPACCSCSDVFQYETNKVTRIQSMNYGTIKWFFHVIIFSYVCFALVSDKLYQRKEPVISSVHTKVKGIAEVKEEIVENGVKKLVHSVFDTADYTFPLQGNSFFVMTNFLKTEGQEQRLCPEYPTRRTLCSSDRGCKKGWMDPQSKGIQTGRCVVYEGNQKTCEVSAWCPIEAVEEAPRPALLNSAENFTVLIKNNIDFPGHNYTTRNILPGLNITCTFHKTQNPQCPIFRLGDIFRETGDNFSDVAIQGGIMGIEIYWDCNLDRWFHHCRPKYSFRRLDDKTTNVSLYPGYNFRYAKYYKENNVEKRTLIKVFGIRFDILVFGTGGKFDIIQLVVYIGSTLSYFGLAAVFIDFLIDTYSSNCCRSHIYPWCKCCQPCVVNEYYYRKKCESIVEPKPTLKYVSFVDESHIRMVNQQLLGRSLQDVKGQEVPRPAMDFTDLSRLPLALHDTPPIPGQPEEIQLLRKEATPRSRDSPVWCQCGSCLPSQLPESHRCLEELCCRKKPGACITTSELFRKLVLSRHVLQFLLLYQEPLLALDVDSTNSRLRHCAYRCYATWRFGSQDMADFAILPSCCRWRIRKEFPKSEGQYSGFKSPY

Target: P2X7 (Homo sapiens (Human), UniProt Q99572)
Assay: P2X7 antagonism in human peripheral blood mononuclear cells (PBMCs), IL-1β release
Assay type: cell-based
Details: LPS 30 ng/ml + Bz-ATP 0.5 mM; for remaining activity at 10 µM: read-out: PBMC 10 μM (% control)
[1] = P2X7, Table 2 (additional runs), 10 μM compound

Row | Compound | PBMC 10 μM (% control) (Table 1, 10 μM compound) | other results
1 | O=C(c1cccc(C(F)(F)F)c1Cl)N1[C@H]2CCC[C@@H]1c1nnc(-c3ncc(F)cn3)n1C2 (stereo in doubt) [Example 17, (6S*,10R*)-11-{[2-Chloro-3-(trifluoromethyl)phenyl]carbonyl}-3-(5-fluoropyrimidin-2-yl)-5,6,7,8,9,10-hexahydro-6,10-epimino[1,2,4]triazolo[4,3-a]azocine] | 84.2 % control | 
2 | O=C(c1cccc(C(F)(F)F)c1Cl)N1[C@@H]2CCC[C@H]1c1nnc(-c3ccc(F)cc3)n1C2 (stereo in doubt) [Example 6, (6R*,10S*)-11-{[2-Chloro-3-(trifluoromethyl)phenyl]carbonyl}-3-(4-fluorophenyl)-5,6,7,8,9,10-hexahydro-6,10-epimino[1,2,4]triazolo[4,3-a]azocine] |  | remaining activity at 10 µM (P2X7, Table 1, 10 μM compound): 5.8%; remaining activity at 10 µM [1]: 5.8%
3 | O=C(c1cccc(C(F)(F)F)c1Cl)N1[C@@H]2CCC[C@H]1c1nnc(-c3cccnc3)n1C2 (stereo in doubt) [Example 15, (6R*,10S*)-11-{[2-Chloro-3-(trifluoromethyl)phenyl]carbonyl}-3-pyridin-3-yl-5,6,7,8,9,10-hexahydro-6,10-epimino[1,2,4]triazolo[4,3-a]azocine] | 89.8 % control | 
4 | O=C(c1cccc(C(F)(F)F)c1Cl)N1[C@H]2CC[C@@H]1c1nnc(-c3ccc(Cl)s3)n1C2 [Example 55, (6S,9R)-3-(5-Chlorothiophen-2-yl)-10-{[2-chloro-3-(trifluoromethyl)phenyl]carbonyl}-6,7,8,9-tetrahydro-5H-6,9-epimino[1,2,4]triazolo[4,3-a]azepine] | 15.3 % control | 
5 | O=C(c1ccc(Cl)cc1Cl)N1[C@H]2CCC[C@@H]1c1nnc(-c3ncc(F)cn3)n1C2 (stereo in doubt) [Example 20, (6S*,10R*)-11-[(2,4-Dichlorophenyl)carbonyl]-3-(5-fluoropyrimidin-2-yl)-5,6,7,8,9,10-hexahydro-6,10-epimino[1,2,4]triazolo[4,3-a]azocine] | 104.2 % control | 
6 | Cc1ccc(-c2nnc3n2C[C@@H]2CCC[C@H]3N2C(=O)c2ccnc(C(F)(F)F)c2Cl)s1 (stereo in doubt) [Example 38, (6S*,10R*)-11-{[3-Chloro-2-(trifluoromethyl)pyridin-4-yl]carbonyl}-3-(5-methylthiophen-2-yl)-5,6,7,8,9,10-hexahydro-6,10-epimino[1,2,4]triazolo[4,3-a]azocine] | 101.0 % control | remaining activity at 10 µM [1]: 101%
7 | O=C(c1cccc(C(F)(F)F)c1Cl)N1[C@H]2CCC[C@@H]1c1nnc(-c3ccccn3)n1C2 (relative stereo) [Example 32, (6S*,10R*)-11-{[2-Chloro-3-(trifluoromethyl)phenyl]carbonyl}-3-pyridin-2-yl-5,6,7,8,9,10-hexahydro-6,10-epimino[1,2,4]triazolo[4,3-a]azocine] | 94.5 % control | PBMC 10 μM (% control) (Table 2 (additional runs), 10 μM compound): 94.5 % control
8 | O=C(c1cccc(C(F)(F)F)c1Cl)N1[C@H]2CC[C@@H]1c1nnc(-c3cccs3)n1C2 [Example 61, (6S,9R)-10-{[2-Chloro-3-(trifluoromethyl)phenyl]carbonyl}-3-thiophen-2-yl-6,7,8,9-tetrahydro-5H-6,9-epimino[1,2,4]triazolo[4,3-a]azepine] | 11.2 % control | 
9 | O=C(c1cccc(C(F)(F)F)c1Cl)N1[C@H]2CC[C@@H]1c1nnc(-c3ncc(F)cn3)n1C2 [Example 50, (6S,9R)-10-{[2-Chloro-3-(trifluoromethyl)phenyl]carbonyl}-3-(5-fluoropyrimidin-2-yl)-6,7,8,9-tetrahydro-5H-6,9-epimino[1,2,4]triazolo[4,3-a]azepine] | 10.4 % control | 
10 | O=C(c1ccc(F)c(C(F)(F)F)c1Cl)N1[C@H]2CC[C@@H]1c1nnc(-c3ccccn3)n1C2 [Example 43, (6S,9R)-10-{[2-Chloro-4-fluoro-3-(trifluoromethyl)phenyl]carbonyl}-3-pyridin-2-yl-6,7,8,9-tetrahydro-5H-6,9-epimino[1,2,4]triazolo[4,3-a]azepine] | −18.6 % control | 
11 | Cc1nc(-c2nnc3n2C[C@@H]2CC[C@H]3N2C(=O)c2cccc(C(F)(F)F)c2Cl)cs1 [Example 56, (6S,9R)-10-{[2-Chloro-3-(trifluoromethyl)phenyl]carbonyl}-3-(2-methyl-1,3-thiazol-4-yl)-6,7,8,9-tetrahydro-5H-6,9-epimino[1,2,4]triazolo[4,3-a]azepine] | 25.9 % control | 
12 | O=C(c1cccc(C(F)(F)F)c1Cl)N1[C@H]2CC[C@@H]1c1nnc(-c3ccc[nH]3)n1C2 [Example 62, (6S,9R)-10-{[2-Chloro-3-(trifluoromethyl)phenyl]carbonyl}-3-(1H-pyrrol-2-yl)-6,7,8,9-tetrahydro-5H-6,9-epimino[1,2,4]triazolo[4,3-a]azepine] | 14.1 % control | 
13 | O=C(c1cccc(C(F)(F)F)c1Cl)N1[C@H]2CC[C@@H]1c1nnc(-c3cnccn3)n1C2 [Example 42, (6S,9R)-10-{[2-Chloro-3-(trifluoromethyl)phenyl]carbonyl}-3-pyrazin-2-yl-6,7,8,9-tetrahydro-5H-6,9-epimino[1,2,4]triazolo[4,3-a]azepine] | −21.3 % control | 
